{
  "source": "patent EP2970434B1",
  "about": "(The Regents of the University of California, dated 2018)",
  "molecular_target": "human plasmin (human) (UniProt P00747)",
  "experiment": "cell-based or functional assay",
  "note": "“And” between values parts separate entries of the source, which are not always exact repeats. Equal entries are not always repeated.",
  "data": [
    {"substance": "Aprotinin (bovine pancreatic trypsin inhibitor) (from UniProt P00974 36-93)", "values": [
      {"measurement": "IC50 (nM), inhibition of plasmin activity (S2251 hydrolysis)", "result": "0.48 nM and 0.57 nM"}
    ]}
  ]
}
